Reference: patent US5051428A, “2-amino-4 or 5-methoxycyclohexyl amides useful as analgesics” (dated 1991)

By UniProt entry, the sequences of proteins in these tests, tags left out. Where a name states a change or a piece, a line headed by the entry shows the natural chain unless it says otherwise. Residues count along the entry.
UniProt A0ACM8Q262, 1-400: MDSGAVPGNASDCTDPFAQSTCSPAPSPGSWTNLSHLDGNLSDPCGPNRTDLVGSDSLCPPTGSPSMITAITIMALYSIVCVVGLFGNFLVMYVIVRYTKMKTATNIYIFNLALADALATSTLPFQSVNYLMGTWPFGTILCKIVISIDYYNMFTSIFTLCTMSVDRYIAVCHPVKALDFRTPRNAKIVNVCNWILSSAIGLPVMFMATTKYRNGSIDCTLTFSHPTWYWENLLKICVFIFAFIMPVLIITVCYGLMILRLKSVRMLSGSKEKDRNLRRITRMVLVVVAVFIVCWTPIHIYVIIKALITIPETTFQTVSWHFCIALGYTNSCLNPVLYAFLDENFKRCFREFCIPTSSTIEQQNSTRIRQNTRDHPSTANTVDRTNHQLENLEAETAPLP
UniProt P41144: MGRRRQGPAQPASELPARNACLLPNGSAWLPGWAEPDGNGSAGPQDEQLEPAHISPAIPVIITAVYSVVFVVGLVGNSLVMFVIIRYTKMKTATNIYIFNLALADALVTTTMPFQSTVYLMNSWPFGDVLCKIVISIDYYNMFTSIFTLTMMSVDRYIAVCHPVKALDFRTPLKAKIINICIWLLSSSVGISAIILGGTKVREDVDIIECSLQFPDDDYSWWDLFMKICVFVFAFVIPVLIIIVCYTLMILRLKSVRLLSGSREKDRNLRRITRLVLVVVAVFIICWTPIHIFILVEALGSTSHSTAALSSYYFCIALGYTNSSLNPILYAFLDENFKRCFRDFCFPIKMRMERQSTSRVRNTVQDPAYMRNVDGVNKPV

target: mu opioid receptor (Cavia porcellus, UniProt A0ACM8Q262); test: mu opioid receptor binding (tritiated DAGO, guinea pig brain homogenate); conditions: read-out: Opioid Binding (Ki nM) mu; mean ± standard error of the mean; triplicate, at least two separate experiments

SMILES	Ki
CO[C@@H]1CC[C@@H](N(C)C(=O)Cc2cccc3occc23)[C@H](N2CCCC2)C1 (relative stereo)	3300 nM
CO[C@@H]1CC[C@@H](N2CCCC2)[C@H](N(C)C(=O)Cc2cccc3occc23)C1 (relative stereo)	4300 nM
CO[C@H]1CC[C@@H](N(C)C(=O)C2c3ccccc3-c3ccccc32)[C@H](N2CCCC2)C1 (relative stereo)	28 nM
CO[C@H]1CC[C@@H](N(C)C(=O)Cc2cccc3occc23)[C@H](N2CCCC2)C1 (relative stereo)	2200 nM
CO[C@H]1CC[C@@H](N2CCCC2)[C@H](N(C)C(=O)C2c3ccccc3-c3ccccc32)C1 (relative stereo)	2130 nM
CO[C@H]1CC[C@@H](N2CCCC2)[C@H](N(C)C(=O)Cc2cccc3occc23)C1 (relative stereo)	11000 nM

target: kappa opioid receptor (Cavia porcellus, UniProt P41144); test: kappa opioid receptor binding (tritiated etorphine, guinea pig brain homogenate, DADLE and DAGO added); conditions: ratio of mu Ki to kappa Ki

SMILES	Opioid Binding mu/k
CO[C@@H]1CC[C@@H](N(C)C(=O)Cc2cccc3occc23)[C@H](N2CCCC2)C1 (relative stereo)	465
CO[C@@H]1CC[C@@H](N2CCCC2)[C@H](N(C)C(=O)Cc2cccc3occc23)C1 (relative stereo)	179
CO[C@H]1CC[C@@H](N(C)C(=O)C2c3ccccc3-c3ccccc32)[C@H](N2CCCC2)C1 (relative stereo)	33
CO[C@H]1CC[C@@H](N(C)C(=O)Cc2cccc3occc23)[C@H](N2CCCC2)C1 (relative stereo)	100
CO[C@H]1CC[C@@H](N2CCCC2)[C@H](N(C)C(=O)C2c3ccccc3-c3ccccc32)C1 (relative stereo)	318
CO[C@H]1CC[C@@H](N2CCCC2)[C@H](N(C)C(=O)Cc2cccc3occc23)C1 (relative stereo)	81

same assay, conditions: read-out: Opioid Binding (Ki nM) kappa; mean ± standard error of the mean; triplicate, at least two separate experiments

SMILES	Ki
CO[C@@H]1CC[C@@H](N(C)C(=O)Cc2cccc3occc23)[C@H](N2CCCC2)C1 (relative stereo)	7.1 nM
CO[C@@H]1CC[C@@H](N2CCCC2)[C@H](N(C)C(=O)Cc2cccc3occc23)C1 (relative stereo)	24 nM
CO[C@H]1CC[C@@H](N(C)C(=O)C2c3ccccc3-c3ccccc32)[C@H](N2CCCC2)C1 (relative stereo)	0.84 nM
CO[C@H]1CC[C@@H](N(C)C(=O)Cc2cccc3occc23)[C@H](N2CCCC2)C1 (relative stereo)	22 nM
CO[C@H]1CC[C@@H](N2CCCC2)[C@H](N(C)C(=O)C2c3ccccc3-c3ccccc32)C1 (relative stereo)	6.7 nM
CO[C@H]1CC[C@@H](N2CCCC2)[C@H](N(C)C(=O)Cc2cccc3occc23)C1 (relative stereo)	135 nM

tested on: kappa opioid receptor; test: not given; conditions: reported in literature, in words; cited from earlier work

SMILES	analgesic activity	kappa agonist activity
CN(C(=O)Cc1ccc(Cl)c(Cl)c1)[C@@H]1CCCC[C@H]1N1CCCC1 (relative stereo)	analgesic activity without attendant dependence liability	selective kappa agonist activity

tested on: rat paw pressure; test: rat paw pressure analgesia test (M. B. Tyers); conditions: I.V.; dose producing 50% of maximum possible analgesic effect; single experiment, six animals per dose level

SMILES	Rat Paw Pressure MPE50
CO[C@@H]1CC[C@@H](N(C)C(=O)Cc2cccc3occc23)[C@H](N2CCCC2)C1 (relative stereo)	0.07 mg/kg
CO[C@@H]1CC[C@@H](N2CCCC2)[C@H](N(C)C(=O)Cc2cccc3occc23)C1 (relative stereo)	1.5 mg/kg
CO[C@H]1CC[C@@H](N(C)C(=O)Cc2cccc3occc23)[C@H](N2CCCC2)C1 (relative stereo)	0.07 mg/kg
CO[C@H]1CC[C@@H](N2CCCC2)[C@H](N(C)C(=O)C2c3ccccc3-c3ccccc32)C1 (relative stereo)	> 1 mg/kg
CO[C@H]1CC[C@@H](N2CCCC2)[C@H](N(C)C(=O)Cc2cccc3occc23)C1 (relative stereo)	5.6 mg/kg
